Patent US20070276049A1 (priority 2003, published 2007)
“And” between values parts separate entries of the source, which are not always exact repeats. Identical values can stand only once.

Experiments:
[1] = system: V428 human vaginal epithelial cells

CCCCCCCCCCCC(=O)OCC(O)CO (centres unmarked) [GML, glycerol monolaurate]
GML concentration at which S. aureus MN8 did not grow (S. aureus MN8): 300 µg/mL
Average number of inclusion bodies per field, With GML (Chlamydia trachomatis): None
inclusions in wells to which GML was added (Chlamydia trachomatis): no inclusions were seen
RNA synthesis in epithelial cells [1]: complete inhibition
Counts/min (incorporation of 3H-thymidine into DNA) (B cells): 5,500 Counts/min and 10,000 Counts/min
